The record followed here is IntAct's records for PubMed 25910212.

B1: Optineurin (Homo sapiens), Q96CV9 (parent)
chain: MSHQPLSCLTEKEDSPSESTGNGPPHLAHPNLDTFTPEELLQQMKELLTENHQLKEAMKLNNQAMKGRFEELSAWTEKQKEERQFFEIQSKEAKERLMALSHENEKLKEELGKLKGKSERSSEDPTDDSRLPRAEAEQEKDQLRTQVVRLQAEKADLLGIVSELQLKLNSSGSSEDSFVEIRMAEGEAEGSVKEIKHSPGPTRTVSTGTALSKYRSRSADGAKNYFEHEELTVSQLLLCLREGNQKVERLEVALKEAKERVSDFEKKTSNRSEIETQTEGSTEKENDEEKGPETVGSEVEALNLQVTSLFKELQEAHTKLSEAELMKKRLQEKCQALERKNSAIPSELNEKQELVYTNKKLELQVESMLSEIKMEQAKTEDEKSKLTVLQMTHNKLLQEHNNALKTIEELTRKESEKVDRAVLKELSEKLELAEKALASKQLQMDEMKQTIAKQEEDLETMTILRAQMEVYCSDFHAERAAREKIHEEKEQLALQLAVLLKENDAFEDGGRQSLMEMQSRHGARTSDSDQQAYLVQRGAEDRDWRQQRNIPIHSCPKCGEVLPDIDTLQIHVMDCII
partner: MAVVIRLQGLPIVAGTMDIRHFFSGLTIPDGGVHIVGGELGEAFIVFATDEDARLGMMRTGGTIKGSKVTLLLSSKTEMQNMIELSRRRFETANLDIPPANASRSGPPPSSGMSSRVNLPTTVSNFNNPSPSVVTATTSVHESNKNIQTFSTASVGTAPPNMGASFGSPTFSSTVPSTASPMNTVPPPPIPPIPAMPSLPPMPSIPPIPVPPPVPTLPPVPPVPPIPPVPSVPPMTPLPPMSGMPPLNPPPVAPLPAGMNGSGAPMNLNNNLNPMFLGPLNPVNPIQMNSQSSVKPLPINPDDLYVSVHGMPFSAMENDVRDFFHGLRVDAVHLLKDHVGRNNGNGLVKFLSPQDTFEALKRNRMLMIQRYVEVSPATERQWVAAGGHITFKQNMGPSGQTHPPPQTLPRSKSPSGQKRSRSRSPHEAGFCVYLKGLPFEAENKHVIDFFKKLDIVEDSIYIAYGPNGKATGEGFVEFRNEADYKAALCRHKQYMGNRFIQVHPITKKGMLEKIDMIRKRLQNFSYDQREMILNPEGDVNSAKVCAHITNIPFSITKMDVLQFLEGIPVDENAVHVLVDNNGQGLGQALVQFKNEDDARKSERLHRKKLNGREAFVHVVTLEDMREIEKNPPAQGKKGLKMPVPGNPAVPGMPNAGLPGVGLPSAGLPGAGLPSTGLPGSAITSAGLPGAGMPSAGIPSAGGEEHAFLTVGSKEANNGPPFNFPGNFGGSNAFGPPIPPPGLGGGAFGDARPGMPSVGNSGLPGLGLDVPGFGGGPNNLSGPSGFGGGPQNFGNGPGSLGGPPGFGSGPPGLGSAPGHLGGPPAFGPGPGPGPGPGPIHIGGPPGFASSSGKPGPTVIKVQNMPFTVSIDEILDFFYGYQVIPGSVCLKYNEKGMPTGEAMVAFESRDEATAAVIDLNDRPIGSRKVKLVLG
B2: Optineurin (Homo sapiens), Q96CV9 (parent)
chain: B1 chain
B3: Optineurin (Homo sapiens), Q96CV9 (parent)
chain: B1 chain
partner: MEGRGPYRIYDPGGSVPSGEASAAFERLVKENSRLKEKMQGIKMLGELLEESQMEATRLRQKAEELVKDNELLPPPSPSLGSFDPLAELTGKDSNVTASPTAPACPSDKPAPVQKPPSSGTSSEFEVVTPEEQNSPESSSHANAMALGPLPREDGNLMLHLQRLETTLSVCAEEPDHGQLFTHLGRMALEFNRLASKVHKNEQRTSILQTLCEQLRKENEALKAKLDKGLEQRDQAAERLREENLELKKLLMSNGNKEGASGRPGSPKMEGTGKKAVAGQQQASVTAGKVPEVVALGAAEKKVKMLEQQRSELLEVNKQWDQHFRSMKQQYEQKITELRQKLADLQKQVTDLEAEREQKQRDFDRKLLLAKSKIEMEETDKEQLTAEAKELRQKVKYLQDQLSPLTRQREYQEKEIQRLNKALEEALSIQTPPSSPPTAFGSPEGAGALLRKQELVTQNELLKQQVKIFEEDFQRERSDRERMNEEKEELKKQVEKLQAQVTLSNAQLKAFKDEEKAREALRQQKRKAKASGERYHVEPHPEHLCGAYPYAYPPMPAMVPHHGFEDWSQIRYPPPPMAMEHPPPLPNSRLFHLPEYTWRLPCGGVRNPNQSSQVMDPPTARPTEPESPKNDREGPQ
B4: Optineurin (Homo sapiens), Q96CV9 (parent)
chain: B1 chain
partner: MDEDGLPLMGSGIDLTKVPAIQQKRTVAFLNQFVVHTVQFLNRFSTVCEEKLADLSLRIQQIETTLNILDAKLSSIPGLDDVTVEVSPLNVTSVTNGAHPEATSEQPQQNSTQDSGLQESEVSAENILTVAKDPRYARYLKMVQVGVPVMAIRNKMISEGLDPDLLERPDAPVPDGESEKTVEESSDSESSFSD
B5: Tumor necrosis factor receptor superfamily member 5 (Homo sapiens), P25942 (parent)
chain: MVRLPLQCVLWGCLLTAVHPEPPTACREKQYLINSQCCSLCQPGQKLVSDCTEFTETECLPCGESEFLDTWNRETHCHQHKYCDPNLGLRVQQKGTSETDTICTCEEGWHCTSEACESCVLHRSCSPGFGVKQIATGVSDTICEPCPVGFFSNVSSAFEKCHPWTSCETKDLVVQQAGTNKTDVVCGPQDRLRALVVIPIIFGILFAILLVLVFIKKVAKKPTNKAPHPKQEPQEINFPDDLPGSNTAAPVQETLHGCQPVTQEDGKESRISVQERQ
partner: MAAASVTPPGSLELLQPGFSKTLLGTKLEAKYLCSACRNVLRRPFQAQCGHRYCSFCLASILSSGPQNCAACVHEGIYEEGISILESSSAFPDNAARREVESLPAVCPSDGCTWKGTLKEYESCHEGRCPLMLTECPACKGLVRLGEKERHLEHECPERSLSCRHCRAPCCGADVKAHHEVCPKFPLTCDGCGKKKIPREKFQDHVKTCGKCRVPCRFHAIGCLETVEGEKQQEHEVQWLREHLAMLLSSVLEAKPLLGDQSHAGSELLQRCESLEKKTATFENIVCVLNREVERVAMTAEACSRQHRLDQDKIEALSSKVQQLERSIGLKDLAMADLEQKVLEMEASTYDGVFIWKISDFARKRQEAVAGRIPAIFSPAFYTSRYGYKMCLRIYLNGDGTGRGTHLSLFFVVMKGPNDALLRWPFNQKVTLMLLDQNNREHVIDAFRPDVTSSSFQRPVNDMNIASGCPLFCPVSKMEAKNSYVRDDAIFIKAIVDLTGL
B6: Ferritin light chain (Homo sapiens), P02792 (parent)
chain: MSSQIRQNYSTDVEAAVNSLVNLYLQASYTYLSLGFYFDRDDVALEGVSHFFRELAEEKREGYERLLKMQNQRGGRALFQDIKKPAEDEWGKTPDAMKAAMALEKKLNQALLDLHALGSARTDPHLCDFLETHFLDEEVKLIKKMGDHLTNLHRLGGPEAGLGEYLFERLTLKHD

The variants in the first test derive from B1. The settings on record: with rbm12_human RBM12, Q9NTZ6.
Take A336G: the “effect of a mutation on the interaction” value was “with no effect”.
For the variant T202R, the “effect of a mutation on the interaction” value was “with no effect”.
K435R: the “effect of a mutation on the interaction” value is reported as “with no effect”.
Same read-out and setting: under E50K stands “with no effect”.

The variants in a further test derive from B2. The settings on record: with cdc23_human CDC23.
Take T202R: the “effect of a mutation on the interaction” value was “disrupting interaction strength”.
Turning to E50K, the “effect of a mutation on the interaction” value is recorded as “with no effect”.
Still for that read-out and setting: under K435R stands “with no effect”; under A336G, “disrupting interaction strength”.

The next test covers variants of B2. The settings on record: with cdc23_human CDC23. The source holds these as a separate data set.
As to T202R, the “effect of a mutation on the interaction” value is “with no effect”.
As to A336G, the “effect of a mutation on the interaction” value is reported as “with no effect”.

The next test covers variants of B3. The settings on record: with tnip1_human TNIP1, Q15025.
Take K435R: the “effect of a mutation on the interaction” value is “with no effect”.
Regarding E50K, the “effect of a mutation on the interaction” value was “with no effect”.
Consider A336G, for which the “effect of a mutation on the interaction” value is recorded as “with no effect”.
Still for that read-out and setting: under T202R stands “with no effect”.

Variants of B3 are the subject of another test. The following applies: with tnip1_human TNIP1, Q15025. This is another data set of the same source.
As to E50K, the “effect of a mutation on the interaction” value is “causing an interaction”.

Variants of B4 are the subject of the next test. The settings on record: with wasc3_human WASHC3, Q9Y3C0.
As to T202R, the “effect of a mutation on the interaction” value is “with no effect”.
Same read-out and setting: in the case of E50K it was “with no effect”.
On the same count and under the same terms, under K435R stands “with no effect”; under A336G, “with no effect”.

In a further test the parent is B5. The settings on record: with traf2_human TRAF2, Q12933.
For the variant P227A, the “effect of a mutation on the interaction” value was “with no effect”.

In a further test the parent is B6. The following applies: with frih_human FTH1, P02794.
Turning to H133P, the “effect of a mutation on the interaction” value was “disrupting interaction strength”.
Same read-out and setting: under A96T stands “disrupting interaction strength”.
